Measurements published in patent publication US20090023666A1, “Modulators of Hypoxia Inducible Factor-1 and Related Uses” (priority 2006, published 2009).

How the values were obtained:
[1] = target: Na-K-ATPase (Canis lupus familiaris, UniProt P50997); test: Na-K-ATPase enzyme assay (inorganic phosphate liberated from ATP), dog kidney; settings: read-out: ATPase Inh, IC50 Dog kidney
[2] = system: 5-aminoimidazole-4-carbox-amide riboside (AICAR); test: AICAR-RA reporter assay; settings: read-out: AICAR-RA ED50, indicative of the inhibition of glucose metabolism
[3] = system: Caki-1 (CAKI); settings: read-out: APA (Caki-1) IC50
[4] = target: Na-K-ATPase; test: Na-K-ATPase enzyme assay (inorganic phosphate liberated from ATP), pig brain; settings: read-out: ATPase Inh, IC50 Pig brain
[5] = system: A549; settings: read-out: APA (A549) IC50

Q: How did the IC50 [1] turn out when `COCC(=O)O[C@@H]1C=C2CC[C@@H]3[C@H](CC[C@]4(C)[C@@H](c5ccc(=O)oc5)CC[C@]34O)[C@@]2(C)CC1` was run?
A: 220 nM

Q: What about the EC50 [2] of the same compound?
A: 111 nM

Q: What about the IC50 [3] of the same compound?
A: 141 nM

Q: What about the IC50 [4] of the same compound?
A: 250 nM

Q: And the IC50 [5]?
A: 11 nM

Q: How did the IC50 [1] turn out when `CC(C)NC(=O)O[C@@H]1C=C2CCC3C(CC[C@]4(C)[C@@H](c5ccc(=O)oc5)CC[C@]34O)[C@@]2(C)CC1` (stereo partly drawn) was run?
A: 279 nM

Q: What about the EC50 [2] of the same compound?
A: 112 nM

Q: And the IC50 [3]?
A: 197 nM

Q: And the IC50 [4]?
A: 273 nM

Q: And the IC50 [5]?
A: 29 nM

Q: Which results are given for `CSCC(=O)O[C@@H]1C=C2CC[C@@H]3[C@H](CC[C@]4(C)[C@@H](c5ccc(=O)oc5)CC[C@]34O)[C@@]2(C)CC1`?
A: IC50 [1]: 180 nM; EC50 [2]: 112 nM; IC50 [3]: 202 nM; IC50 [4]: 312 nM; IC50 [5]: 14 nM
